In patent publication US9850293B2, “Targeting trastuzumab-resistant HER2+ breast cancer with a HER3-targeting nanoparticle” (priority 2014, dated 2017):

How the values were obtained:
BT474 parental cells = assay: Tumor cell killing in culture; assay type: cell-based, human; settings: parental BT474, 48-72 h after treatment
Protocol: (§1) FIG. 21 depicts graph that show the results of the administration of HerDox on various cells. […] N=3. *=p<0.05 compared to parental. […] N=3.
(§2) N=3. *, p<0.05 compared to parental. […] N=3. […] Parental and resistant cell lines were treated with HerDox−/+HER3 blocking peptide (ErbB3 human; Prospec), and tested for cell survival 48 hours later. […] Treatments were compared to mock (saline)-treatment. […] N=3. *, p<0.05 compared to parental. […] N=3.
(§3) Parental cell lines were pre-treated with 0.5 mg/mL Tz for 24 hours before testing these cells for surface HER3 levels. […] Parental cell lines were pre-treated with 0.5 mg/mL Tz for 24 hours before testing these cells for HerPBK10 binding. […] SKBR3 Parental cells were treated with Tz at indicated concentrations (see upper X-axes) 4 and 24 hours before HerDox treatment and assayed for survival at 48-72 h after treatment. N=3. […] SK-474 Parental cells were treated with Tz at indicated concentrations (see upper X-axes) 4 and 24 hours before HerDox treatment and assayed for survival at 48-72 h after treatment. N=3. […] MDA-MB-435 non-resistant cells were treated with Tz at indicated concentrations (see upper X-axes) 4 and 24 hours before HerDox treatment and assayed for survival at 48-72 h after treatment. N=3. […]
(§4) N=3. *, p<0.05 compared to parental. […] Tumor volumes were measured by calipers. […] Tumor volumes were measured by calipers. […]

[1] = system: BT474 trastuzumab-resistant cells; assay: Tumor cell killing in culture; settings: 48-72 h after treatment
Protocol: as §1, §2, §3, §4

SKBR3 parental cells = assay: Tumor cell killing in culture; assay type: cell-based, human; settings: 48-72 h after treatment
Protocol: as §1, §2, §3

[2] = system: SKBR3 trastuzumab-resistant cells; assay: Tumor cell killing in culture; assay type: cell-based, human; settings: 48-72 h after treatment
Protocol: as §1, §2
Each therapeutic was administered at concentration ranges previously established for eliciting therapeutic efficacy.
Each therapeutic was administered at concentration ranges previously established or known in the art for eliciting therapeutic efficacy.

JIMT-1 cell line = assay: Tumor cell killing in culture, pre-existing resistance; assay type: cell-based, human; settings: broad concentration range
Protocol: N=3. *, p<0.05 compared to parental. […] N=3. […] Treatments were compared to mock (saline)-treatment. […] N=3. *, p<0.05 compared to parental. […] N=3.
(§5) The efficacy of HerDox was also examined on a cell line with pre-existing resistance.
(§6) The contribution of HER3 to targeted toxicity was evaluated by assessing whether pre-adsorbing HerDox with a peptide comprising the ligand-binding domain of HER3 blocked cytotoxicity.

JIMT-1 tumors = assay: Trastuzumab-resistant tumor growth in vivo; set-up: species or system mouse; settings: 0.004 mg Dox/kg/injection, twice-weekly IV
Protocol: (§7) Tumor volumes were measured by calipers. Day 0 corresponds to first day of treatment. N=10 tumors per treatment.
as §7, §5, §6

HER2+ tumor = assay: Biodistribution of labeled HerPBK10, Tz and BSA; assay type: in vivo, mouse; settings: tail vein, four hours after injection
Protocol: (§8) (A) compares biodistribution and intracellular trafficking of HerPBK10 and Tz.
Fluorescently-labeled HerPBK10 was prepared to assess its bio-distribution and cell uptake in comparison to labeled Tz. Equivalent doses of each reagent were injected into the tail veins of HER2+ tumor bearing mice. Tissues were harvested at four hours after injection for imaging. Both reagents were compared to a labeled non-targeted protein, BSA.

HER2+ MDA-MB-435 cells = assay: Cell uptake (fluorescence confocal microscopy); assay type: cell-based, human; settings: up to two hours after cell binding
Protocol: as §8
The uptake in HER2+ MDA-MB-435 cells were also evaluated.

[3] = system: Tz+Lp-resistant BT474 cells; assay: Tumor cell killing in culture; assay type: cell-based, human
[4] = system: BT474 Tz-resistant tumors; assay: Tumor growth in vivo, HerGa; set-up: species or system mouse; settings: intravenous
Protocol: N=3. *, p<0.05 compared to parental. […] N=3. […] N=3. […] Tumor volumes were measured by calipers. Day 0 corresponds to first day of treatment. N=10 tumors per treatment. […] Tumor volumes were measured by calipers. Day 0 corresponds to first day of treatment. N=10 tumors per treatment.

In the case of “Trastuzumab: monoclonal antibody that interferes with the HER2/neu receptor [reference compound]”, the “reduction of cell survival” value (BT474 parental cells) is reported as 50%, the “effect on BT474 resistant cells” value [1] is reported as “ineffective” and the “response of parental SKBR3 cells” value (SKBR3 parental cells) is reported as “little response”. The “response of SKBR3 resistant cells” value [2] was “little response”, the “response of JIMT-1 cells” value (JIMT-1 cell line) was “remained unresponsive” and the “effect on JIMT-1 tumor growth” value (JIMT-1 tumors) was “only slight”. For the same substance, the “delivery to liver, lung, and kidney” value (HER2+ tumor) was “higher for Tz than HerPBK10”, the “delivery to the heart, spleen, and muscle” value (HER2+ tumor) was “nearly absent delivery” and the tumor accumulation (HER2+ tumor) was “equivalent levels of tumor accumulation”. For the same substance, the “cell surface binding and uptake pattern” value (HER2+ MDA-MB-435 cells) was “sparse binding on the cell surface that remained in sparsely punctate areas on the cells up to two hours after cell binding”, the “effect on Tz+Lp-resistant BT474 cells” value [3] was “no efficacy” and the “size of tumors that became resistant to Tz treatment in vivo” value [4] was “started to grow in size despite therapeutic doses of Tz”.
